ALDH1A1 inh: blocks purified human ALDH1A1 activity; P00352; Purified ALDH1A1, NADH fluorescence, propionaldehyde substrate; AID 1030; Potency, µM (series often up to 75.3 µM), for inactives: at the highest dose activity, negative = inhibition, usual class: inhibitors; 220,000 tested, 7.3% active; active means well fitted inhibition curve with a large enough effect, not every such curve was filed as active; inconclusive means small, poorly fitted or top-dose-only effect, or another doubt; inactive means no such curve, though single readings can be large or run the other way;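 further: potency means the concentration at half of the fitted maximal effect; plate controls were no enzyme wells and a reference inhibitor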
LMNA splice mod: modulators of lamin A splicing; HeLa LMNA splicing GFP/RFP minigene ratio, 48 h; Potency, µM (highest dose often 46.1 µM), for the others: at the top dose ratio change, negative = inhibition, most hits filed as inhibitors; 200,000 tested, 0.01% active; AID 1487; active means well fitted inhibition curve with a large enough effect in the signal ratio, with a control signal flat, not every such curve was filed as active; inconclusive means small, poorly fitted or top-dose-only effect, or effect the other way, or a change in a side signal; the % refers to the signal ratio; further: potency means the concentration at half of the fitted maximal effect; on the % scale 0 is the no-effect control and ±100 the full control effect
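Read-out is the ratio of GFP to DsRed2 object intensity, acquired by 488 nm laser-scanning cytometry on HeLa lamin A-EGFP minigene reporter cells. Compound incubation 48 hrs at 37 °C in Opti-MEM with 2% FBS; DMSO 0.5% final.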
G9a block: G9a (human) methyltransferase inhibition; Q96KQ7; G9a H3K9 monomethylation, AlphaScreen, 2 h; Potency, µM (top dose mostly 102 µM), inactives show top-dose activity, negative = inhibition, usual class: inhibitors; 350,000 tested, 8.8% active; further: potency means the concentration at half of the fitted maximal effect; on the % scale 0 is the no-effect control and ±100 the full control effect; nearly all actives have a fitted effect of over 75% in size
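AlphaScreen read-out: biotin-H3K9 peptide (500 nM) methylation by 20 nM enzyme with 20 uM SAM, 2 h at room temperature after 15 min compound preincubation; anti-monomethyl H3K9 antibody plus donor/acceptor beads, 10 min dark.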
Sfp inh: qHTS Assay for Inhibitors of Bacillus subtilis Sfp phosphopantetheinyl transferase (PPTase); actives 3.5% (n = 310,000); AID 1490, 2009; Biochemical Sfp PPTase activity, qHTS; Potency, µM, for inactives: max response, negative = inhibition, usual class: inhibitors; 4'-phosphopantetheinyl transferase ffp (Bacillus subtilis), Q9F4F7; active means well fitted inhibition curve with a large enough effect; inconclusive means small, poorly fitted or top-dose-only effect, or another doubt; inactive means no such curve, though single readings can be large or run the other way;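 further: the enzyme is Sfp with the accession as filed and its product quenches rhodamine fluorescence; potency means the concentration at half of the fitted maximal effect; 0% = enzyme reaction without inhibitor and -100% = no enzyme wells; top concentration of the series not given in the record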
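Fluorescence-quenching assay with 15 nM Sfp, 5 uM rhodamine-CoA and 12.5 uM BHQ-2-labelled ybbR peptide in pH 7.6 Hepes/MgCl2 buffer. Enzyme was pre-incubated with compound for 15 min at room temperature. Rate was taken from the 30-min fluorescence change (525/598 nm).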
miR-21 reporter: raises the signal of a miR-21 reporter; HeLa miR-21 FLuc reporter, luciferase, 48 h; Potency, µM (highest dose often 38.3 µM), inactives show at the highest dose reporter change, positive = more light; 340,000 tested, under 10 active; active = well fitted rising curve with a large enough effect; inconclusive = small, poorly fitted or top-dose-only effect; inactive = no such curve, though single readings can be large or run the other way;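 note: % of control where 0% means no effect; miR-21 action dims this reporter so a rising signal means less miR-21 action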
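HeLa miR-21-FLuc reporter line, endogenous miR-21; 2000 cells/well in DMEM/10% FBS; compound titration up to ~40uM final, 48 h, 37 degree Celsius; luciferase detection reagent, 15 min lysis, CCD luminescence.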
KDM4E inh: blocks human JMJD2E demethylase activity | JMJD2E catalytic domain, FDH-coupled NADH fluorescence (FDH is formaldehyde dehydrogenase) | Potency, µM (doses to about 57.1 µM), without a hit: at the top dose activity change, negative = inhibition, most hits filed as inhibitors | 230,000 tested, 1.6% active | AID 2147; active means well fitted inhibition curve with a large enough effect, not every such curve was filed as active; inconclusive means small, poorly fitted or top-dose-only effect, or another doubt; inactive means no such curve, though single readings can be large or run the other way;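 further: potency means the concentration at half of the fitted maximal effect; 0% = wells with enzyme and -100% = buffer wells without enzyme; nearly all actives have a fitted effect of over 50% in size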
Starred values were filed as active, the others as inactive; ? = inconclusive; . = no result given; [ ] = dose if it differs, or a comment. In the library only some 13% were active in any assay of this set; here they are far more common. Unless noted, the call rests on the fitted dose curve; in most records, active means well fitted curve in the direction sought with a large enough effect; inconclusive means small, poorly fitted or top-dose-only effect, or another doubt; inactive means no such curve, though single readings can be large; an effect the other way counts as inactive or inconclusive.

Each structure is followed by: ALDH1A1 inh	LMNA splice mod	G9a block	Sfp inh	miR-21 reporter	KDM4E inh
Nc1ccc(S(=O)(=O)N2CCC(Cc3ccccc3)CC2)cc1
  .	.	10.8%	-8.4%	0.4%	.
O=C1CNC(=O)/C1=C\N1CCN(C(c2ccccc2)c2ccccc2)CC1
  -13.9%	7.2%	44.7µM*	-7.5%	-14.6%	0.9%
O=C1CNC(=O)/C1=C\N1CCCCC1
  -4.5%	-9.7%	?	-10.0%	-4.2%	-0.5%
O=C1c2ccccc2C(O)(O)[C@@]1(O)[C@]1(O)C(=O)c2ccccc2C1(O)O
  0.251µM*	.	.	.	.	.
O=C(CSc1nnc(CNC(=O)c2ccco2)o1)Nc1ccc(Br)cc1
  .	.	10µM*	-19.4%	-0.8%	.
O=C(CSc1nnc(CNC(=O)c2ccco2)o1)Nc1ccccc1F
  .	.	25.1µM*	39.8µM*	-0.7%	.
O=C(CSc1nnc(CNC(=O)c2ccco2)o1)Nc1ccccc1C(F)(F)F
  .	.	2.0%[0.501 µM]	4.7%	-0.2%	.
CC[N+](C)(CC)CCC/C(=N/O)C(O)(c1ccccc1)c1ccccc1
  .	.	50.1µM*	4.5%	0.4%	-6.9%
CCOC(=O)c1ccc(NC(=S)NC(=O)COc2ccccc2)cc1
  22.4µM*	5.5%	22.2%[59 µM]	?	3.8%	5.8%
O=C(CCCOc1ccccc1)NC(=S)Nc1ccccc1
  10µM*	?	?	7.6%	-6.4%	-1.9%
COC(=O)COc1cc(OCC(=O)OC)c2c(C)c(Cl)c(=O)oc2c1
  ?	-3.3%	10µM*	4.3%	0.2%	-3.8%
COC(=O)COc1cc(C)cc2oc(=O)c(CC(=O)OC)c(C)c12
  ?	9.6%	9.3%[59 µM]	0.6%	-0.6%	?
CCOC(=O)c1sc(=S)n(CC)c1NC(=O)c1ccccc1C
  .	.	.	6.1%	0.5%	-4.4%
CCOC(=O)c1sc(=S)n(C)c1NC(=O)c1cccc(Br)c1
  .	.	10µM*	17.8µM*	18.5%	-6.8%
CCOC(=O)c1sc(=S)n(C)c1NC(=O)c1ccccc1
  3.55µM*	-5.8%	2.82µM*	14.1µM*	-2.1%	-1.0%
COc1cc(OC)cc(-c2nc3nc(C)c(CCC(=O)Nc4ccc(C)c(C)c4)c(C)n3n2)c1
  .	.	9.1%[59 µM]	.	-3.8%	.
COc1cccc(-c2cc(NCc3cccs3)ncn2)c1
  ?	-3.7%	.	-20.2%	.	-5.7%
CN1C(=O)c2oc3ccc(Br)cc3c(=O)c2C1c1ccncc1 (configuration not stated)
  ?	8.6%	15.8µM*	39.8µM*	-2.5%	-29.5%
CN1C(=O)c2oc3ccccc3c(=O)c2C1c1ccccn1 (configuration not stated)
  ?	-0.9%	28.2µM*	-23.2%	-7.5%	-4.7%
CN(C)CCN1C(=O)c2oc3ccc(F)cc3c(=O)c2C1c1ccncc1 (configuration not stated)
  ?	-5.0%	-13.5%[59 µM]	2.4%	-2.8%	?
CCCOc1ccc(N2C(=O)CC(N3CCN(CCN=CC4C(=O)CC(C)(C)CC4=O)CC3)C2=O)cc1 (configuration not stated)
  ?	.	-1.0%	-14.9%	0.7%	-0.2%
COC(=O)c1ccc(N2C(=O)CC(N3CCOCC3)C2=O)cc1 (configuration not stated)
  28.2µM*	4.3%	79.4µM*	-4.8%	-0.2%	-0.2%
CCCOc1ccc(N2C(=O)CC(N3CCOCC3)C2=O)cc1 (configuration not stated)
  25.1µM*	-0.4%	-30.7%[12.7 µM]	11.1%	0.8%	6.5%
O=C1CC(N2CCOCC2)C(=O)N1c1ccc(Cl)cc1 (configuration not stated)
  .	.	.	10.1%	6.5%	0.6%
CC(=O)Nc1ccc(N2C(=O)CC(N3CC(C)OC(C)C3)C2=O)cc1 (configuration not stated)
  7.94µM*	0.8%	22.4µM*	-18.1%	-5.8%	4.1%
CCCOc1ccc(N2C(=O)CC(N3CCC(C(=O)OCC)CC3)C2=O)cc1 (configuration not stated)
  ?	-1.1%	50.1µM*	13.0%	-7.8%	-0.7%
COc1cccc(COC(=O)Cc2ccc(S(=O)(=O)N3CCOCC3)s2)c1OC
  .	.	5.1%[12.7 µM]	.	.	.
Cn1cnnc1SCCNS(=O)(=O)c1cccc([N+](=O)[O-])c1
  .	.	28.3%	11.6%	-3.9%	.
COc1ccc(OC)c(C2C(C(=O)Nc3ccccc3OC)=C(C)Nc3c(C(=O)Nc4ccc(F)cc4)cnn32)c1 (configuration not stated)
  .	?	-28.0%[59 µM]	.	15.1%	.
CC(C)CN1CCN(Cc2cccn2-c2cccnc2)CC1CCO (configuration not stated)
  3.55µM*	.	-42.8%	9.5%	0.6%	5.7%

Next section:
SMILES,ALDH1A1 inh,LMNA splice mod,G9a block,Sfp inh,miR-21 reporter,KDM4E inh
O=C(Nc1ccc(NC(=S)NC(=O)c2cccs2)cc1)c1ccccc1,?,-4.6%,5.1%[59 µM],4.1%,-13.8%,-7.4%
Cc1cccnc1NC(=S)NC(=O)c1cccs1,-1.3%,5.7%,?,79.4µM*,-46.3%,-9.3%
O=C(NC(=S)Nc1ccccc1)c1cccs1,.,.,-12.2%[59 µM],44.7µM*,-48.8%,.
O=C(CNC(=S)NC(=O)c1cccs1)c1ccccc1,7.94µM*,0.3%,?,-26.2%,-55.4%,8.1%
Cc1c(C(=O)NC(=S)Nc2ccc(NC(=O)c3cccs3)cc2)oc2ccccc12,1.26µM*,11.4%,1.41µM*,8.91µM*,11.0%,5.5%
Cc1ccsc1C(=O)OC(C)C(=O)NC1CCCCC1C (configuration not stated),.,.,-39.9%,.,.,.
O=C(NCc1ccccc1)c1ccc(CSc2nc3cccnc3n2Cc2cccc(F)c2)cc1,.,?,-21.7%[59 µM],.,-1.0%,.
O=C(Nc1ccc(NC(=S)NC(=O)c2ccco2)cc1)c1ccccc1,.,.,?,-1.0%,-10.0%,.

Single records (already shown). Values in the order: ALDH1A1 inh, LMNA splice mod, G9a block, Sfp inh, miR-21 reporter, KDM4E inh
CCOC(=O)c1sc(=S)n(CC)c1NC(=O)c1ccccc1C in the list: ., ., ., 6.1%, 0.5%, -4.4%
Cc1ccsc1C(=O)OC(C)C(=O)NC1CCCCC1C (configuration not stated) in the list: ., ., -39.9%, ., ., .
CC[N+](C)(CC)CCC/C(=N/O)C(O)(c1ccccc1)c1ccccc1 in the list: ., ., 50.1µM*, 4.5%, 0.4%, -6.9%
CN1C(=O)c2oc3ccc(Br)cc3c(=O)c2C1c1ccncc1 (configuration not stated) in the list: ?, 8.6%, 15.8µM*, 39.8µM*, -2.5%, -29.5%

(list continues)
SMILES,ALDH1A1 inh,LMNA splice mod,G9a block,Sfp inh,miR-21 reporter,KDM4E inh
O=C(CNC(=S)NC(=O)c1ccco1)c1ccccc1,20µM*,3.2%,?,-19.5%,-36.7%,4.5%
COc1ccccc1Nc1cc(C)nc(Nc2ccccc2OC)n1,.,.,2.24µM*,.,.,.
N=c1n(Cc2ccc(Cl)cc2)c2ccccc2n1CC(O)COc1ccccc1 (configuration not stated),9.7%,?,?,-3.7%,?,-9.1%
N=c1n(Cc2ccccc2)c2ccccc2n1CC(O)COc1ccc(Cl)cc1Cl (configuration not stated),0.4%,?,9.0%[12.7 µM],17.8µM*,?,-8.2%
N#Cc1c(-c2ccccc2)no[n+]1[O-],5.01µM*,?,21.5%[12.7 µM],4.0%,.,0.9%
COc1ccc(N2CCN(C(=O)c3ccc4c(c3)CCN4S(=O)(=O)c3ccccc3)CC2)cc1,.,.,28.2µM*,9.0%,-3.5%,.
O=C(c1ccc2c(c1)CCN2S(=O)(=O)c1ccccc1)N1CCN(c2ccc(F)cc2)CC1,.,.,-9.5%,14.2%,9.6%,.
O=C(c1cccc(S(=O)(=O)N2CCc3ccccc32)c1)N1CCN(c2ccccc2)CC1,.,.,22.4µM*,.,.,.
